Molecular target: T1, A3ARs (U87MG) (Homo sapiens, UniProt P0DMS8)
T1 construct: gene ADORA3; native receptor in membranes of U87MG glioblastoma cells
Assay: radioligand saturation binding, membranes
Details: no PEMF, […] °C, […] min, labelled compound
Protocol: radioligand saturation binding, membranes on A3ARs (U87MG)

Protein sequences, listed by entry. Tags and fused reporters are not part of them.
UniProt P0DMS8, whole entry: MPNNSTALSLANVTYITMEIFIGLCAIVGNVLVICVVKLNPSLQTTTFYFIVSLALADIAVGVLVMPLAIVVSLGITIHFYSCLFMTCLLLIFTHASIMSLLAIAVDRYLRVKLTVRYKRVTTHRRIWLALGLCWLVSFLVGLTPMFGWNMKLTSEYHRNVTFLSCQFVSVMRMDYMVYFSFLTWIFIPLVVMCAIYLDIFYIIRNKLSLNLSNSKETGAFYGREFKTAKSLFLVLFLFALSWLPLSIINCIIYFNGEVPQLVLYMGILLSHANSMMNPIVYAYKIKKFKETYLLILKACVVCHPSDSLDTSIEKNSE

CNC(=O)[C@H]1O[C@@H](n2cnc3c(NCc4ccc(N)c(I)c4)ncnc32)[C@H](O)[C@@H]1O [[125I]-AB-MECA, [^125I]-4-aminobenzyl-5′-N-methylcarboxamidoadenosine]
Kd: 2.14 ± 0.22 nM

— PMC3382599, “The Anti-Tumor Effect of A3 Adenosine Receptors Is Potentiated by Pulsed Electromagnetic Fields in Cultured Neural Cancer Cells” (PLoS ONE, 2012)
